In paper PMC7006680, “Sulfocoumarins as dual inhibitors of human carbonic anhydrase isoforms IX/XII and of human thioredoxin reductase” (Journal of Enzyme Inhibition and Medicinal Chemistry, 2020):

Molecular target: T1, hCA IX (Homo sapiens, UniProt Q16790)
T1 construct: made in house
Assay: Stopped-flow CO2 hydration CA inhibition assay, hCA IX
Type: biochemical
Description: The CO2 concentrations ranged from 1.7 to 17 mM for the determination of the kinetic parameters and inhibition constants. […] The uncatalysed rates were determined in the same manner and subtracted from the total observed rates. […] Inhibitor and enzyme solutions were pre-incubated together for 15 min at room temperature prior to assay, in order to allow for the formation of the E–I complex.

“1-(2,2-Dioxido-1,2-benzoxathiin-6-yl)-5-(4-fluorophenyl)-1H-1,2,3-triazole [Compound 1d]” was tested. Which Ki did it give?
The Ki was 6.9 nM.

“1-(2,2-Dioxido-1,2-benzoxathiin-6-yl)-4-(4-fluorophenyl)-1H-1,2,3-triazole [Compound 1b]” was tested. Which Ki did it give?
The Ki was 8.3 nM.
